The values that follow are results of earlier work, collected in PubChem BioAssay AID1811 (Shanghai Institute of Organic Chemistry, 2009).

The test system of the data set is FK506 binding protein. The data set is described as follows: PubChem AID 1811. Conditions: PDB complex binding affinities from literature.

Molecules are shown by their SMILES. This is one part of the list. Active and inactive are the calls of the source. Where no limit is named, active and inactive come without a cut-off here.

For `CO[C@H]1C[C@@H]2CC[C@@H](C)[C@@](O)(O2)C(=O)C(=O)N2CCCC[C@H]2C(=O)O[C@H]([C@H](C)C[C@@H]2CC[C@@H](O)[C@H](OC)C2)CC(=O)[C@H](C)/C=C(\C)[C@@H](O)[C@@H](OC)C(=O)[C@H](C)C[C@H](C)/C=C/C=C/C=C/1C`, the result was active.
